This is an account of results in patent publication US20230365617A1, “SAPONIN DERIVATIVES FOR USE IN MEDICINE” (priority 2020, published 2023).

The subject of the data set is human red blood cells. Type of data set: cell-based. Here is the method:
Cells were pelleted by centrifugation for 10 min, 800xg at RT.

On to “trastuzumab-SO1861 (DAR4): antibody-SO1861 conjugate, DAR4”, for which the “initial hemolytic activity from ... onwards” value is reported as at least 60.000 nM.
